In US20050070602A1, “Method of modulating immune response by administration of immuno-activation agent” (priority 2003, published 2005):

Conditions: PEITC-NAC diet 8 μmol/g, nine weeks
Excerpt: Five week-old BALB/c (nu/nu) male mice purchased from Charles River Laboratories (Wilmington, Mass.) were housed in a barrier facility with 12-h light/dark cycles; tap water and diets provided ad libitum. They were randomly divided into two groups of nine mice. […] The diets began one week prior to inoculation of PC-3 cells and continued until termination of experiments. The xenografted tumors were established by a single s.c. injection in the flank of 0.8×10^6 PC-3 cells suspended in ice-cold matrigel (sigma). The tumor volumes were measured every 7-8 days and calculated by length×width×height×0.5236. Animal body weights were recorded weekly and at autopsy; food consumption was determined twice per week. Two hours before the mice were euthanized, 5-bromo-2′-deoxyuridine (BrdU) (10 mg/kg body weight) was injected in the peritoneum for in vivo labeling of proliferating cells. At autopsy, xenograft tumors were weighed and frozen in liquid nitrogen or fixed in 10% formalin and embedded in paraffin. The BrdU-labeled cells of paraffin embedded tissues on slides were detected employing a monoclonal anti-BrdU antibody from a BrdU detection kit (Roche Molecular Biochemicals) according to manufacturer's direction. The mean numbers of labeled cells from multiple fields were calculated. The comparisons between control and experimental groups were performed with Student's t test.

For CC(=O)N[C@@H](CSC(=S)NCCc1ccccc1)C(=O)O [PEITC-NAC, N-acetylcysteine conjugate of phenethyl isothiocyanate], the overt toxicity was “no overt toxicity”.
